Binding of CDR-mutated scFvs to a peptide of the spike HR2 region

Data: MIT Lincoln Laboratory AlphaSeq set, Li et al. 2023, doi:10.1038/s41467-023-39022-2, as distributed in FLAb.

Target peptide (SARS-CoV-2 spike, HR2 region): PDVDLGDISGINAS

Each scFv is VH, a 15-residue (Gly4Ser)3 linker, VL, as in the parent Ab-14, and differs from it in the CDRs of the heavy chain only.
VH: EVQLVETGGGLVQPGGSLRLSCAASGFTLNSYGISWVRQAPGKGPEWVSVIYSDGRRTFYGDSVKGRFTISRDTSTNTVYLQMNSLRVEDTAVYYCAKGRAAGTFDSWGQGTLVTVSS
VL: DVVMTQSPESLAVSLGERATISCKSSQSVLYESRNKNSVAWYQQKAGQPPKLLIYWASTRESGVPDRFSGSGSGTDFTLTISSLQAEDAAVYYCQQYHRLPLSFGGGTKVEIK

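The parent was found by panning a naive human phage display library on the peptide. This is the validation round: designs drawn from the data on random variants, tested in the same kind of assay. Several design methods are mixed in this list. In AlphaSeq, yeast of one mating type display the scFv and yeast of the other type display the target. Binding brings cells together so that they mate, and sequencing counts the barcode pairs among the diploids. The ratio of observed to expected reads was calibrated, replicate by replicate, on BCL2-family standards whose Kd was known from biolayer interferometry. There are six technical replicates.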

Each variant's VH is given in full. The read-out is the apparent dissociation constant on a log10 scale (nM): the lower, the stronger. Averages over replicates are reported, and they cover detected replicates only. A pair that was not seen in that replicate is written "n.d."; this usually means weak binding, but a binder can also be missed. The authors' rule: three or more of the six replicates give a measured affinity, fewer mean a poor binder.

replicates, log10 nM	mean log10 Kd (nM)	empty controls	VH
n.d. n.d. n.d. n.d. n.d. n.d.	n.d.	0/18	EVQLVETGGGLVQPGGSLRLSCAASGKSLDEYGISWVRQAPGKGPEWVSVIYADGQRTSYTNSVKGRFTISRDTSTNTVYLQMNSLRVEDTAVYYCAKGLSNFVQIVWGQGTLVTVSS
1.39 -0.31 -0.10 -0.04 0.17 -0.18	0.15	0/18	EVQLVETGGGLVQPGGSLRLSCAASGFTLNEYGISWVRQAPGKGPEWVSVIYSDGRRTFYGDSVKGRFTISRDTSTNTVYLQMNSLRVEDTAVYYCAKGRAAGTPDSWGQGTLVTVSS
n.d. n.d. n.d. n.d. n.d. n.d.	n.d.	0/18	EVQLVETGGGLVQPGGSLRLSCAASGFHLDEYGISWVRQAPGKGPEWVSVIYADGKRSAYTNHVKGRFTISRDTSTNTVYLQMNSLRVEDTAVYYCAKGELEFGFVIWGQGTLVTVSS
-1.55 n.d. -1.78 -1.56 0.01 -1.76	-1.33	0/18	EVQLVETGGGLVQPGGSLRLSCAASGFDLNEYGISWVRQAPGKGPEWVSVIYADGRRTFYADSVKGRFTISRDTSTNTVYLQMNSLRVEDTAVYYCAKGQNAGTFDMWGQGTLVTVSS
n.d. n.d. n.d. n.d. n.d. n.d.	n.d.	0/18	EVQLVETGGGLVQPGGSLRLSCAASGFTLNSYGISWVRQAPGKGPEWVSVIYSDGMRTFYGDSVKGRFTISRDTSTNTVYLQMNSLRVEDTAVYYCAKGVAAKTFDSWGQGTLVTVSS
n.d. n.d. n.d. n.d. n.d. n.d.	n.d.	0/18	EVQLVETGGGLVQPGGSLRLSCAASGFDINEYGISWVRQAPGKGPEWVSVIYADGQRESYAESVKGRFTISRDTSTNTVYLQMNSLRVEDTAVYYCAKGFNQTINLVWGQGTLVTVSS
n.d. n.d. n.d. n.d. n.d. n.d.	n.d.	0/18	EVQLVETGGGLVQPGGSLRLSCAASGFDINEYGISWVRQAPGKGPEWVSVIYADGFREAYAESVKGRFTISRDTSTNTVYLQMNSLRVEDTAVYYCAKGLNQTGWTVWGQGTLVTVSS
n.d. n.d. n.d. n.d. n.d. n.d.	n.d.	0/18	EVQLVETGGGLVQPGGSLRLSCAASKFQLNEYGISWVRQAPGKGPEWVSVIYSDGRRTFYGDSVKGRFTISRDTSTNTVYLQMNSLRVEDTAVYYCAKGRNAGTFDSWGQGTLVTVSS
-0.89 -1.39 -1.73 n.d. -1.81 -0.18	-1.20	0/18	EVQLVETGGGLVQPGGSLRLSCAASGFDLNDYGISWVRQAPGKGPEWVSVIYADGRRTAYIDSVKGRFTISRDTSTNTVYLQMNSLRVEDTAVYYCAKGEVAGTFDIWGQGTLVTVSS
-0.22 -0.18 -0.15 -0.23 -0.40 0.34	-0.14	0/18	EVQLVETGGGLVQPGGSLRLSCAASGFDLNEYGISWVRQAPGKGPEWVSVIYADGIRTAYSDSVKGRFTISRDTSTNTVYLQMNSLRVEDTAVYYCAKGENAGTFDVWGQGTLVTVSS
n.d. n.d. n.d. n.d. n.d. n.d.	n.d.	0/18	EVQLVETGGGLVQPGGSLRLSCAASGFSLDEMGISWVRQAPGKGPEWVSVIYADGQRTAYQDNVKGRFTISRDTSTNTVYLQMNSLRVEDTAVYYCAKSVNGVVVFLWGQGTLVTVSS
n.d. n.d. 2.29 n.d. n.d. n.d.	2.29	1/18 (2.44)	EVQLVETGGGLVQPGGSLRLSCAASGFELSEYGISWVRQAPGKGPEWVSVIYADGHRSFVTDDVKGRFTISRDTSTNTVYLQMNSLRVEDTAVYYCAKGQNAGAFNVWGQGTLVTVSS
-0.80 -0.42 -1.03 -0.89 -1.06 -0.46	-0.78	1/18 (0.29)	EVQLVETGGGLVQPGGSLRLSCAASGFDLNEYGISWVRQAPGKGPEWVSVIYADGKRTFYSDSVKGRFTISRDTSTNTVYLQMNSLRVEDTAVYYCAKGQLAGTFDSWGQGTLVTVSS
n.d. n.d. n.d. n.d. n.d. n.d.	n.d.	0/18	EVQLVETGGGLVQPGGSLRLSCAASGFTLNSYGISWVRQAPGKGPEWVSVIYSDGRRTFYGDSVKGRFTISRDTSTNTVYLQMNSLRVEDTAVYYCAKGYPAGTFISWGQGTLVTVSS
-0.15 -0.14 -0.39 -0.31 -0.42 -0.22	-0.27	2/18 (2.61)	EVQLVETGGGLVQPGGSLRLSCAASGFDLDEYGISWVRQAPGKGPEWVSVIYADGKRTAYADSVKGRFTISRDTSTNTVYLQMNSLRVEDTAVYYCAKGNVAGTFDQWGQGTLVTVSS
1.17 1.31 0.32 0.81 1.07 0.91	0.93	0/18	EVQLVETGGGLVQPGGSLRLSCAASKFSLNSYGISWVRQAPGKGPEWVSVIYADGRRTFYGDSVKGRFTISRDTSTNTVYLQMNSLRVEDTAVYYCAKGRAAGTFDVWGQGTLVTVSS
1.46 n.d. 1.22 1.03 0.94 1.50	1.23	0/18	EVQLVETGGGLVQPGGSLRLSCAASGFSLNNYGISWVRQAPGKGPEWVSVIYSDGRRTFYGDKVKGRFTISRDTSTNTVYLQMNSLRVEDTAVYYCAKGRQAGTFDSWGQGTLVTVSS
1.85 3.20 1.37 n.d. 2.09 1.51	2.00	0/18	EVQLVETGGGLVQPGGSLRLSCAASGFTLNSYGISWVRQAPGKGPEWVSVIYSDGRRTFYGDSVKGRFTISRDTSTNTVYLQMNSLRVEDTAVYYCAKGRAAGSFTDWGQGTLVTVSS
-0.69 -0.60 -0.72 -0.92 -1.01 -0.73	-0.78	1/18 (2.51)	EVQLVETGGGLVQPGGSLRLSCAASGFDLNEYGISWVRQAPGKGPEWVSVIYADGRRTFYTDSVKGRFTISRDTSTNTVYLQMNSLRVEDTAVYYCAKGEVAGTFDKWGQGTLVTVSS
0.27 0.60 0.18 -0.66 0.78 0.10	0.21	1/18 (0.51)	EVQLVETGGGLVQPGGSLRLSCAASGFTLNEYGISWVRQAPGKGPEWVSVIYSDGRRTFYHDSVKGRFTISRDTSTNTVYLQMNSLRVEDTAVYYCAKGRFAGTFDSWGQGTLVTVSS

Extract of 2 entries:

VH	replicates, log10 nM	mean log10 Kd (nM)	empty controls
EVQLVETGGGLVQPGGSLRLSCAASGFDLNEYGISWVRQAPGKGPEWVSVIYADGIRTAYSDSVKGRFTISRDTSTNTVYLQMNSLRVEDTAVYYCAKGENAGTFDVWGQGTLVTVSS	-0.22 -0.18 -0.15 -0.23 -0.40 0.34	-0.14	0/18
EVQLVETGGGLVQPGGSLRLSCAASGFTLNSYGISWVRQAPGKGPEWVSVIYSDGRRTFYGDSVKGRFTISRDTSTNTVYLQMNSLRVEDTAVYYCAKGYPAGTFISWGQGTLVTVSS	n.d. n.d. n.d. n.d. n.d. n.d.	n.d.	0/18

Of ten entries with the parent sequence, four were seen in most replicates (averages 0.34 to 2.37), three in one and three in none, so single entries are noisy. Values of this round are not directly comparable with the first-round values of the same sequences. As a blank, each scFv also met three strains without target: over all heavy chain designs, 1% of these pairings were detected, typically at 2.08 and seldom below 0.84. The control count says in how many pairings with the empty strains this scFv gave a signal, with their mean in brackets.